Earlier results in patent US20120107391A1, “THERAPY OF PLATINUM-RESISTANT CANCER” (Genentech, Inc., priority 2004, published 2012).

Settings: combined with gemcitabine, phase II trials; cited from earlier work

Q: Which tolerability does the source give for “Trastuzumab: Recombinant humanized version of murine HER2 antibody 4D5; light and heavy chain SEQ ID NOS. 14 and 15” here?
A: well tolerated with no observed cardiac or unexpected toxicities
